Only a part is listed here, and it is no random draw. Activity calls are given as the source filed them. Cut-off read from the data, not from the text of the source: active = inhibition above about 50%; inactive = the rest.
Assay: blockers of TWEAK-induced Fn14 reporter activity – luciferase reporter cells, uHTS, primary screen (AID 1159606)
Conditions: TWEAK-stimulated Fn14 reporter cells, luciferase luminescence, 8 h; at 10 µM; active compounds read high

Structure (SMILES) | inhibition
O=[N+]([O-])c1cc(Oc2ccc([N+](=O)[O-])cc2C(F)(F)F)cc([N+](=O)[O-])c1 | inactive: 19%
O=C(OC1CN2CCC1CC2)C12CC3CC(CC(C3)C1)C2 (stereo not given) | inactive: 5.2%
Cc1cc(=O)[nH]c(N[N+](=O)[O-])n1 | inactive: -8%
Cc1c2c(nc3ccccc13)SC(C(Cl)Cl)C2 (stereo not given) | inactive: -17.9%
COc1ccc2nc(NP(=O)(c3ccccc3)c3ccccc3)sc2c1 | inactive: 0.98%
COc1cc(I)ccc1[As](=O)(O)O | inactive: -12.6%
O=P1(N(CCCl)CCCl)OCCCN1CCCl (stereo not given) | inactive: -9.61%
O=P1(N(CCCl)CCCl)Nc2ccccc2N1 | inactive: -3.69%
CCOC(=O)c1ccc(NC(=O)C(C)(CCl)SC)cc1 (stereo not given) | inactive: -14.8%
O=C(OC1CN2CCC1CC2)c1cccc([N+](=O)[O-])c1 (stereo not given) | inactive: 7.86%
CSc1ccc(Nc2c([N+](=O)[O-])cc([N+](=O)[O-])cc2[N+](=O)[O-])cc1 | active: 63.5%
CCC(C)N(CC(C)C)C(=S)SC(NC(C)=O)C(Cl)(Cl)Cl (stereo not given) | inactive: -44.4%
COP1(=S)c2c(C)nn(CCC#N)c2N=C(c2ccc(F)cc2)N1C (stereo not given) | inactive: 15.3%
COC(=O)C1(C)COP(=O)(N2CCCC2)OC1 (stereo not given) | inactive: -4.08%
O=C(COc1ccccc1)OC1CN2CCC1CC2 (stereo not given) | inactive: -23.1%
O=C(Nc1ccncc1[N+](=O)[O-])c1ccc([N+](=O)[O-])cc1[N+](=O)[O-] | inactive: 45.4%
O=C(O)C(=O)c1ccc(N(CCCl)CCCl)cc1 | inactive: -14.4%
CCOC(=O)Nc1cccc([As](=O)(O)O)c1 | inactive: 4.37%
O=[N+]([O-])c1ccc(Nc2ccc(Oc3ccc([N+](=O)[O-])cc3[N+](=O)[O-])cc2)c([N+](=O)[O-])c1 | inactive: -15.8%
Cc1cc(SC(NC=O)C(Cl)(Cl)Cl)ncn1 (stereo not given) | inactive: -11.9%
O=P(Nc1ccccn1)(c1cccc2ccccc12)c1cccc2ccccc12 | inactive: -15.1%
CC1CCNP(=O)(N(CCCl)CCCl)O1 (stereo not given) | inactive: 5.31%
O=C(O)C(O)c1ccc(N(CCCl)CCCl)cc1 (stereo not given) | inactive: -15.7%
CCOC(=O)Nc1ccc([As](=O)(O)O)c(O)c1 | inactive: -7.42%
CCCCOc1ccc(C(=O)NCC2(N3CCCCC3)CCCCC2)cc1OC | inactive: -14.1%

Structure (SMILES) | inhibition
Cc1cc(SC(NC(=O)c2ccccc2)C(Cl)(Cl)Cl)nc(C(C)C)n1 (stereo not given) | inactive: 24.1%
COP(=O)(OC)N1CC1c1ccccc1 (stereo not given) | inactive: 2.6%
O=P1(Nc2ncccn2)COc2ccccc2OC1 | inactive: 0.09%
Cc1ccc(S(=O)(=O)N(CCCN)CCCc2c(C)nc(N)[nH]c2=O)cc1 | inactive: -3.87%
NS(=O)(=O)c1cccc(NC(=O)COC(=O)C(O)(c2ccccc2)c2ccccc2)c1 | inactive: -9.44%
O=P1(Nc2ccc(Br)cn2)COc2ccccc2OC1 | inactive: -9.33%
Cc1ccc(OCC(=O)OC2CN3CCC2CC3)cc1 (stereo not given) | inactive: 2.87%
O=[As](O)(c1cccs1)c1cccs1 | inactive: 6.97%
Nc1cccc([As](=O)(O)c2ccccc2)c1 | inactive: -20%
Cc1nn(-c2ccccc2)c2c1P(=O)(N1CCOCC1)N(C)C(c1ccccc1)=N2 (stereo not given) | inactive: 11.7%
Cc1ccc(C(=O)OC2CN3CCC2CC3)cc1 (stereo not given) | inactive: 13.8%
CC1CCC(C(C)C)C(OP(=O)(Nc2ccccn2)c2ccccc2)C1 (stereo not given) | inactive: 26.3%
O=C(/C=C/c1ccccc1)OC1CN2CCC1CC2 (stereo not given) | inactive: 0.65%
CCCC1OP(=O)(Nc2ccccc2)OCC1CC (stereo not given) | inactive: 0.1%
CN(C)C1(CNC(=O)c2ccc(S(C)(=O)=O)cc2)CCCCC1 | inactive: -21.6%
COc1ccccc1CNC(=O)COC(=O)C(O)(c1ccccc1)c1ccccc1 | inactive: 5.77%
CC1(CBr)Cn2c(nc3ccccc3c2=O)S1 (stereo not given) | inactive: -7.51%
CN(C(=O)Cc1ccc(Cl)c(Cl)c1)[C@@H]1CCCC[C@H]1N1CCCC1 | inactive: 12.5%
CC(C)/C=N\N=C(\N)N[N+](=O)[O-] | inactive: 2.09%
CN(CCCl)Cc1cc(Cl)c(NC2=NCCN2)c(Cl)c1 | inactive: -6.48%
CCOP(=O)(Nc1ccc(C)cn1)OCC | inactive: 6.46%
CCC1=CC2Cc3nc4ccc(Cl)cc4c(N)c3C(C1)C2 (stereo not given) | inactive: 4.89%
O=P1(Nc2ccccn2)COc2ccccc2OC1 | inactive: -21.3%
CCOP(=O)(NC(=NC(C)c1ccccc1)NC(C)c1ccccc1)OCC (stereo not given) | inactive: 26.2%
Clc1n[nH]nc1-c1nn[nH][15n]1 | inactive: -10.3%

Structure (SMILES) | inhibition
O=P1(N(CCCl)CCCl)NCCC(C(F)(F)F)O1 (stereo not given) | inactive: -16.7%
CC(C)(C)C(=O)NC(Sc1ncccn1)C(Cl)(Cl)Cl (stereo not given) | inactive: -14.8%
CCCOP(=S)(Nc1nc(N)cc(=O)[nH]1)OCCC | inactive: -11.1%
Cc1ccc(NCCc2c([N+](=O)[O-])cc([N+](=O)[O-])cc2[N+](=O)[O-])cc1 | inactive: 41.7%
Nc1cccc2c([As](=O)(O)O)cccc12 | inactive: 23.9%
COc1cc(C2NCCC3(OCCO3)C2(C)C)cc(OC)c1OC (stereo not given) | inactive: 29.6%
CCOP(=O)(Nc1cccc2ccccc12)OCC | inactive: 2.84%
COc1cc(C(=O)NCC2(N3CCOCC3)CCCCC2)cc(Cl)c1OC(C)C | inactive: 16%
O=[As](O)(O)c1cccnc1 | inactive: 2.62%
CS(=O)(=O)c1ccc(Cl)c(NC(=O)COC(=O)C(O)(c2ccccc2)c2ccccc2)c1 | inactive: -26.8%
O=C(OC1CN2CCC1CC2)c1ccc(Cl)cc1 (stereo not given) | inactive: -1.78%
O=[As](O)(c1cccc(O)c1)c1cccc(O)c1 | inactive: 24%
Cc1cccc(OCC(=O)OC2CN3CCC2CC3)c1 (stereo not given) | inactive: 10.2%
NC(=O)Nc1ccc([As](=O)(O)O)cc1 | inactive: 11.2%
CN(C)C(=O)c1cc([N+](=O)[O-])cc2c1-c1c(cc([N+](=O)[O-])cc1[N+](=O)[O-])C2=O | active: 60.2%
O=[N+]([O-])c1ccc2c(c1)nnn2O | inactive: 1.65%
N#CCCN(C(=O)COC(=O)C(O)(c1ccccc1)c1ccccc1)c1ccc(F)cc1 | inactive: -5.24%
CN(C(=O)Cc1ccccc1)[C@@H]1CC[C@]2(CCCO2)C[C@H]1N1CCCC1 | inactive: 5.84%
CCOP1(=S)c2c(C)nn(CCC#N)c2N=C(c2ccc(F)cc2)N1C (stereo not given) | inactive: -21.9%
CS(=O)(=O)c1cc([N+](=O)[O-])c2no[n+]([O-])c2c1 | inactive: 3.73%
CCOP1(=S)c2c(C)nn(CCC#N)c2N=C(c2ccccc2F)N1C (stereo not given) | inactive: 7.21%
O=P(Nc1nccs1)(c1ccccc1)c1nc2ccccc2s1 (stereo not given) | inactive: -7.93%
O=P(Nc1nccs1)(Oc1ccccc1)Oc1ccccc1 | inactive: -5.13%
O=C(O)COc1ccc([As](=O)(O)O)cc1[N+](=O)[O-] | inactive: -0.61%
Nc1ccccc1[As](=O)(O)c1ccccc1 | inactive: 0.71%
